Measured values taken from patent US10138230B2, “Autotaxin inhibitors” (CANCER RESEARCH TECHNOLOGY LIMITED, priority 2015, dated 2018).

Target: human recombinant ATX (Homo sapiens (Human), UniProt Q13822)
Assay: Autotaxin (ATX) activity Quanta Red assay
Type: biochemical
Settings: 15 μM Rac-1-Palmitoyl-glycero-3-phosphocholine, 2 hours room temperature, determined in duplicate
Description: The ATX enzyme assay (Quanta Red assay) described in accompanying Example section may be used to measure the pharmacological effects of the compounds of the present invention.
Autotaxin (ATX) Activity Quanta Red Assay
Measuring ATX activity using an enzyme coupled Quanta Red assay (Thermo Scientific—Pierce Protein Research Products, Product #15159) was determined as follows. 8 μL human recombinant ATX (final concentration 0.8 μg/mL) in 1× Assay buffer containing 50 mM Tris-HCl (pH 8.0), 5 mM CaCl2 was added to an opaque black flat-bottom 384-well plate (Corning, #3575) containing 2 μL test compound in 40% DMSO (4% final DMSO concentration). 10 μL of Quanta Red, Horseradish peroxidase (HRP), Choline Oxidase (CO), Rac-1-Palmitoyl-glycero-3-phosphocholine solution (final concentration 1:250 for Quanta Red, 0.5units/ml HRP, 0.5units/ml CO, 15 μM Rac-1-Palmitoyl-glycero-3-phosphocholine) in 1× assay buffer (as described previously) was added to each well to start the reaction and the plate was incubated at room temperature for 2 hours. The reaction was stopped after 2 hours with a 20 μL addition of Quanta Red Stop solution (1:20 dilution in distilled water). The above-described mixture with DMSO alone was used as a positive control whereas that with DMSO alone without ATX was taken as a negative control.
For each test compound, ten concentrations were measured covering a range of 6.1 nM to 120 μM to determine IC50 values. The top concentration was decreased to 1.2 μM when a test compound's IC50 value was evaluated in low nanomolar range. Fluorescence was determined in a BMG Labtech Pherastar plus plate reader ([…]). Data were analysed using Excel fit software. IC50 values were determined in duplicate.

IC50	SMILES
3 nM	O=C(N[C@H]1CC(=O)N(c2ccc(CN3CCCCC3)cc2)C1)c1nnc(CCc2ccc(Cl)cc2)s1 [Compound F133, 5-[2-(4-chlorophenyl)ethyl]-N-[(3S)-5-oxo-1-[4-(1-piperidylmethyl)phenyl]pyrrolidin-3-yl]-1,3,4-thiadiazole-2-carboxamide]
1550 nM	Cn1nc(CCc2ccc(Cl)cc2)cc1NC(=O)C1CC(=O)N(c2ccc(CN3CCOCC3)cc2)C1 (stereo not drawn) [Compound F202, N-[5-[2-(4-chlorophenyl)ethyl]-2-methyl-pyrazol-3-yl]-1-[4-(morpholinomethyl)phenyl]-5-oxo-pyrrolidine-3-carboxamide]

SMILES	IC50
O=C(NC1CC(=O)N(c2ccc(CN3CCCCC3)cc2)C1)c1nnc(CCc2ccc(Cl)cc2)s1 (stereo not drawn) [Compound F139, 5-[2-(4-chlorophenyl)ethyl]-N-[5-oxo-1-[4-(1-piperidylmethyl)phenyl]pyrrolidin-3-yl]-1,3,4-thiadiazole-2-carboxamide]	5 nM
